# In publication PMC8291497 (ACS Chemical Biology, 2021):
# Columns and labels:
# [1] = target: T1, PARM-pWT (364-570; R455K, C483A, C501A, Y524W, C566A) (Homo sapiens, UniProt Q99767, C483A/C501A/C566A/R455K/Y524W); assay: Stopped flow binding kinetics, APP A-to-E variants to PARM-pWT
# T1 construct: PARM-pWT (364-570;); made in house; host or cells: semisynthesis, three-segment approach (expressed fragments plus synthetic segment)
# T1 sequence (Q99767 364-570 R455K/C483A/C501A/Y524W/C566A): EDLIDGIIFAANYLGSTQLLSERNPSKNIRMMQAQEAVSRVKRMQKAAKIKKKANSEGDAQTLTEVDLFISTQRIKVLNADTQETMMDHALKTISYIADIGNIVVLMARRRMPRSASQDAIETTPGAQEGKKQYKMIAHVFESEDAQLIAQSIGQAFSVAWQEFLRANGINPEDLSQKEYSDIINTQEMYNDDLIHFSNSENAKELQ
# Procedure: (§1) Kinetic binding rate constants were obtained using an upgraded SX17 stopped flow spectrometer (Applied Photophysics), and all experiments were conducted at 25 °C in 500 mM NaCl and 25 mM HEPES (pH 7.4). The relatively high NaCl concentration was used to improve the solubility of the proteins. The change in tryptophan fluorescence was measured using a band-pass filter (excitation at 280 nm and emission at 330 ± 30 nm) when mixing varying concentrations (2–50 μM) of the dansyl peptides with 1 μM protein or 0.5 μM semisynthetic proteins. […] For PTB variants, we used the kobs value from the fast kinetic phase for the analysis. […] We report the errors in kon and koff from the curve fitting. […] For these koff determinations, we report the standard error of the mean of three replicates. Φ values were defined as ΔΔGTS/ΔΔGeq, where ΔΔGTS = RT ln(kon^WT/kon^mut.) and ΔΔGeq = RT ln(Kd^mut./Keq^WT). Calculated coupling free energies were defined as ΔΔΔGEq = RT ln(Kd^mut.:WTKd^WT:mut./Kd^WT:WTKd^mut.:mut.) or ΔΔΔGTS = RT ln(kon^WT:WTkon^mut.:mut./kon^mut.:WTkon^WT:mut.) as previously described.[27] Propagated errors are reported.
# Mint2 PTB 364-538 = Mint2 PTB 364-538 (Homo sapiens, UniProt Q99767, Y524W); assay: biochemical
# [2] = target: T2, Mint2 PTB 364-538 (without the ARM linker) (Homo sapiens, UniProt Q99767, Y524W); assay: Stopped flow binding kinetics, APP peptides to PTB
# T2 construct: PTB without the ARM linker (residues 364–538); made in house; host or cells: Escherichia coli BL21(DE3)pLysS
# T2 sequence (Q99767 364-538 Y524W): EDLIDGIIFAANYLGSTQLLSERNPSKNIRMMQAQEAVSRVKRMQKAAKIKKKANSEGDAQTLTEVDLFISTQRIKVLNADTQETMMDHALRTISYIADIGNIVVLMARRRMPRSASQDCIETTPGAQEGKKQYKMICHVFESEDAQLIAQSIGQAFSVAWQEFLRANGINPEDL
# Procedure: as §1
# [3] = target: Mint2 PARM 364-570 (Y524W) (Homo sapiens, UniProt Q99767, Y524W); assay: biochemical
# [4] = target: T3, Mint2 PARM 364-570 (Y524W), pWT PARM (PTB domain and ARM linker) (Homo sapiens, UniProt Q99767, Y524W); assay: Stopped flow binding kinetics, APP peptides to PARM (pseudo-wild type)
# T3 construct: PARM domain (residues 364–570, i.e., PTB and the ARM linker) containing the Y524W mutation; made in house; host or cells: Escherichia coli BL21(DE3)pLysS
# T3 sequence (Q99767 364-570 Y524W): T1 sequence (Q99767 364-570 R455K/C483A/C501A/Y524W/C566A) with K92R, A120C, A138C, A203C
# Procedure: as §1
# [5] = target: T4, Mint2 PARM 364-570 (Y524W, Y543A) (Homo sapiens, UniProt Q99767, Y524W/Y543A); assay: biochemical
# T4 sequence (Q99767 364-570 Y524W/Y543A): T1 sequence (Q99767 364-570 R455K/C483A/C501A/Y524W/C566A) with K92R, A120C, A138C, Y180A, A203C
# [6] = target: T5, Mint2 PARM 364-570 (Y524W, Y543E) (Homo sapiens, UniProt Q99767, Y524W/Y543E); assay: Stopped flow binding kinetics, APP peptides to PARM^Y543E; set-up: PARM domain (residues 364–570, i.e., PTB and the ARM linker); made in house; host or cells: Escherichia coli BL21(DE3)pLysS
# T5 sequence (Q99767 364-570 Y524W/Y543E): T1 sequence (Q99767 364-570 R455K/C483A/C501A/Y524W/C566A) with K92R, A120C, A138C, Y180E, A203C
# Procedure: as §1
# Mint2 PARMWT 364-570 = Mint2 PARMWT 364-570 (Homo sapiens, UniProt Q99767); assay: biochemical
# [7] = target: T5, Mint2 PARM 364-570 (Y524W, Y543E); assay: biochemical
# [8] = target: T4, Mint2 PARM 364-570 (Y524W, Y543A); assay: Stopped flow binding kinetics, APP peptides to PARM^Y543A; set-up: PARM domain (residues 364–570, i.e., PTB and the ARM linker); made in house; host or cells: Escherichia coli BL21(DE3)pLysS
# Procedure: as §1
# PTB/PARM = assay: ITC
# [9] = target: PARM-pWT (semisynthetic human Mint2 364-570; R455K, C483A, C501A, Y524W, C566A) (human) (UniProt Q99767); assay: stopped-flow fluorescence kinetics
# [10] = target: PARM-pWT Y459ψ (amide-to-ester variant of semisynthetic human Mint2 364-570) (human) (UniProt Q99767); assay: stopped-flow fluorescence kinetics
# [11] = target: PARM, pseudo-wild type (human Mint2 364-570, Y524W) (human) (UniProt Q99767); assay: fluorescence polarisation
# [12] = target: PTB (human Mint2 PTB domain without the ARM linker, residues 364-538, Y524W) (human) (UniProt Q99767); assay: stopped-flow fluorescence kinetics
# [13] = target: PARM^Y543A (human Mint2 364-570, Y524W, Y543A) (human) (UniProt Q99767); assay: stopped-flow fluorescence kinetics
# [14] = target: PARM, pseudo-wild type (human Mint2 364-570, Y524W) (human) (UniProt Q99767); assay: stopped-flow fluorescence kinetics
# [15] = target: PARM^Y543E (human Mint2 364-570, Y524W, Y543E) (human) (UniProt Q99767); assay: stopped-flow fluorescence kinetics
Compound,Ki (Mint2 PTB 364-538) [µM],Kd [2] [µM],Ki [3] [µM],Kd [4] [µM],Ki [5] [µM],Kd [6] [µM],Ki (Mint2 PARMWT 364-570) [µM],Ki [7] [µM],Kd [8] [µM],further results
C[C@@H](O)[C@H](NC(=O)[C@@H]1CCCN1C(=O)[C@H](CC(N)=O)NC(=O)[C@H](CCC(=O)O)OC(=O)[C@H](Cc1ccc(O)cc1)NC(=O)CNC(=O)[C@H](CC(N)=O)NC(=O)CNC(=O)[C@H](CC(N)=O)NC(=O)[C@H](CC(N)=O)NS(=O)(=O)c1cccc2c(N(C)C)cccc12)C(=O)N[C@@H](Cc1ccc(O)cc1)C(=O)N[C@@H](CCCCN)C(=O)N[C@@H](Cc1ccccc1)C(=O)N[C@@H](Cc1ccccc1)C(=O)N[C@@H](CCC(=O)O)C(=O)O [Peptide E758ε],–,–,–,–,–,–,–,–,–,Kd [1]: 33 µM
C[C@H](NC(=O)[C@H](CCCCN)NC(=O)[C@H](Cc1ccc(O)cc1)NC(=O)[C@@H](NC(=O)[C@@H]1CCCN1C(=O)[C@H](CC(N)=O)NC(=O)[C@H](CCC(=O)O)NC(=O)[C@H](Cc1ccc(O)cc1)NC(=O)CNC(=O)[C@H](CC(N)=O)NC(=O)CNC(=O)[C@H](CC(N)=O)NC(=O)[C@H](CC(N)=O)NS(=O)(=O)c1cccc2c(N(C)C)cccc12)[C@@H](C)O)C(=O)N[C@@H](Cc1ccccc1)C(=O)N[C@@H](CCC(=O)O)C(=O)O [Peptide F764A],5.6,3.7,63 ± 11,66 ± 8,18 ± 3,26 ± 1,88 ± 4,23 ± 0.6,27 ± 0.6,–
C[C@H](NC(=O)[C@H](Cc1ccccc1)NC(=O)[C@H](CCCCN)NC(=O)[C@H](Cc1ccc(O)cc1)NC(=O)[C@@H](NC(=O)[C@@H]1CCCN1C(=O)[C@H](CC(N)=O)NC(=O)[C@H](CCC(=O)O)NC(=O)[C@H](Cc1ccc(O)cc1)NC(=O)CNC(=O)[C@H](CC(N)=O)NC(=O)CNC(=O)[C@H](CC(N)=O)NC(=O)[C@H](CC(N)=O)NS(=O)(=O)c1cccc2c(N(C)C)cccc12)[C@@H](C)O)C(=O)N[C@@H](CCC(=O)O)C(=O)O [Peptide F765A],6.4,3.4,68 ± 3,62 ± 5,24 ± 0.8,33 ± 2,89 ± 5,18 ± 0.6,31 ± 2,–
C[C@@H](O)[C@H](NC(=O)[C@@H]1CCCN1C(=O)[C@H](CC(N)=O)NC(=O)[C@H](CCC(=O)O)NC(=O)[C@H](Cc1ccc(O)cc1)NC(=O)CNC(=O)[C@H](CC(N)=O)NC(=O)CNC(=O)[C@H](CC(N)=O)NC(=O)[C@H](CC(N)=O)NS(=O)(=O)c1cccc2c(N(C)C)cccc12)C(=O)N[C@@H](Cc1ccc(O)cc1)C(=O)N[C@@H](CCCCN)C(=O)N[C@@H](Cc1ccccc1)C(=O)NCC(=O)N[C@@H](CCC(=O)O)C(=O)O [Peptide F765G],7.5,4.2,88 ± 7,81 ± 6,28 ± 0.5,43 ± 3,92 ± 6,21 ± 0.3,47 ± 5,–
C[C@H](NC(=O)[C@H](Cc1ccc(O)cc1)NC(=O)[C@@H](NC(=O)[C@@H]1CCCN1C(=O)[C@H](CC(N)=O)NC(=O)[C@H](CCC(=O)O)NC(=O)[C@H](Cc1ccc(O)cc1)NC(=O)CNC(=O)[C@H](CC(N)=O)NC(=O)CNC(=O)[C@H](CC(N)=O)NC(=O)[C@H](CC(N)=O)NS(=O)(=O)c1cccc2c(N(C)C)cccc12)[C@@H](C)O)C(=O)N[C@@H](Cc1ccccc1)C(=O)N[C@@H](Cc1ccccc1)C(=O)N[C@@H](CCC(=O)O)C(=O)O [Peptide K763A],–,0.53,6.6,6.7,2.5,3.2,9.7,2.7,2.2,–
C[C@@H](O)[C@H](NC(=O)[C@@H]1CCCN1C(=O)[C@H](CC(N)=O)NC(=O)[C@H](CCC(=O)O)NC(=O)[C@H](Cc1ccccc1)NC(=O)CNC(=O)[C@H](CC(N)=O)NC(=O)CNC(=O)[C@H](CC(N)=O)NC(=O)[C@H](CC(N)=O)NS(=O)(=O)c1cccc2c(N(C)C)cccc12)C(=O)N[C@@H](Cc1ccc(O)cc1)C(=O)N[C@@H](CCCCN)C(=O)N[C@@H](Cc1ccccc1)C(=O)N[C@@H](Cc1ccccc1)C(=O)N[C@@H](CCC(=O)O)C(=O)O [Peptide Y757F],1.4,–,9.5,11 ± 0.6,4.4,5.2,13 ± 1,3.1,4.3,–
APP^WT (…) (peptide),–,–,–,–,–,–,–,–,–,stoichiometry N (PTB/PARM): 0.9 and 1.1
"Dansyl-APP^E758ε (Dansyl-NNG-NGYεNPTYKFFE), amide-to-ester variant (peptide)",–,–,–,–,–,–,–,–,–,koff [9]: 18.1 s⁻¹; kon [9]: 560000 M⁻¹ s⁻¹
"Dansyl-APP^N759ν (Dansyl-NNG-NGYEνPTYKFFE), amide-to-ester variant (peptide)",–,–,–,–,–,–,–,–,–,koff [10]: 40 s⁻¹; kon [10]: 570000 M⁻¹ s⁻¹; koff [9]: 14.6 s⁻¹; kon [9]: 600000 M⁻¹ s⁻¹
dansyl-APP^Y762pY (dansyl-NNG-NGYENPTpYKFFE) (peptide),–,–,–,–,–,–,–,–,–,Ki [11]: 320 µM; koff [12]: 111 s⁻¹; kon [12]: 1.4e+07 M⁻¹ s⁻¹; koff [13]: 91 s⁻¹; kon [13]: 900000 M⁻¹ s⁻¹; Kd [14]: 302 µM; koff [14]: 99 s⁻¹; kon [14]: 330000 M⁻¹ s⁻¹; koff [15]: 91 s⁻¹; kon [15]: 1e+06 M⁻¹ s⁻¹

# Where a chain is given by its changes, count along the chain named. Where “and” joins values, the source holds several entries; their conditions need not be identical. Identical values can stand only once.
